From patent US20210309732A1 (ELIXIRON IMMUNOTHERAPEUTICS HONG KONG, published 2021)

Amino acid sequences for entries named in this document (tags omitted). Residues count along the entry.
UniProt P04141, 18-144 limits assumed: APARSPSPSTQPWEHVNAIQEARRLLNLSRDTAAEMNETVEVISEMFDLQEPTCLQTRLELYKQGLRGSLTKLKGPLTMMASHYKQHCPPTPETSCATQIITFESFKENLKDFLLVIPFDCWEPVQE

Biological target: T1, recombinant human GM-CSF (human, UniProt P04141 18-144)
T1 construct: also called rhGM-CSF; CSF2
Assay: SPR Biacore 3000, antibody captured by goat anti-human IgG, rhGM-CSF injected
Description: The kinetic binding analysis of anti-GM-CSF antibodies to recombinant human GM-CSF (rhGM-CSF) was determined by Surface plasmon resonance (SPR) using the Biacore 3000 instrument (GE Healthcare). Goat anti-human IgG (5 μg/mL) (SouthernBiotech) was stabilized in […] acetate buffer, pH 4.5, and immobilized on an EDC/NHS pre-activated carboxymethylated dextran 5 (CMS) sensor chip (GE Healthcare) through amine coupling kit (GE Healthcare). HBS-EP buffer (HBS; 10 […], 0.005% surfactant Tween-20, pH 7.4) (GE Healthcare) was used as running buffer. 1D2, AMG203 and MOR103 were respectively captured on the CMS sensor chip by goat anti-human IgG. CMS sensor chip coated only with goat anti-human IgG was used as reference chip. rhGM-CSF (Biolegend) was injected over the mAb-coated CMS sensor chip and reference chip at different concentrations. The flow rate was 30 μl/min. […] Injection time and dissociation time were 180 and 600 seconds. Data were fitted to a 1:1 model using the Biacore 3000 evaluation software. […] Antibody-binding kinetic rate constants (Ka and Kd), as well as the equilibrium dissociation constant (KD=Kd/Ka), are shown in Table 4. The 1D2 antibody has a lower KD value than that of AMG203 and MOR103, indicating 1D2 antibody has higher affinity to rhGM-CSF compared to AMG203 and MOR103.

Kd: 0.366 nM | koff: 6.19e-05 s⁻¹ | kon: 169000 M⁻¹ s⁻¹
B1: MOR103 (otilimab) (antibody, V domains shown)
VH: QVQLVESGGGLVQPGGSLRLSCAASGFTFSSYWMNWVRQAPGKGLEWVSGIENKYAGGATYYAASVKGRFTISRDNSKNTLYLQMNSLRAEDTAVYYCARGFGTDFWGQGTLVTVSS
VL: DIELTQPPSVSVAPGQTARISCSGDSIGKKYAYWYQQKPGQAPVLVIYKKRPSGIPERFSGSNSGNTATLTISGTQAEDEADYYCSAWGDKGMVFGGGTKLTVL
